# Literature values in patent US10058633B2, “Biodegradable scaffolds” (Board of Regents of the University of Texas System, priority 2010, dated 2018).
# Conditions: in vivo; cited from earlier work
substance,measurement,value
VEGF,half-life,50 min
